From US8633196B2, “Benzenesulfonamide compounds, method for synthesizing same, and use thereof in medicine as well as in cosmetics” (Galderma Research & Development, priority 2009, dated 2014) come the findings set out here.

Protein sequences, listed by entry. Tags and fused reporters are not part of them. Residues count along the entry.
UniProt P78536, 215-824 limits assumed: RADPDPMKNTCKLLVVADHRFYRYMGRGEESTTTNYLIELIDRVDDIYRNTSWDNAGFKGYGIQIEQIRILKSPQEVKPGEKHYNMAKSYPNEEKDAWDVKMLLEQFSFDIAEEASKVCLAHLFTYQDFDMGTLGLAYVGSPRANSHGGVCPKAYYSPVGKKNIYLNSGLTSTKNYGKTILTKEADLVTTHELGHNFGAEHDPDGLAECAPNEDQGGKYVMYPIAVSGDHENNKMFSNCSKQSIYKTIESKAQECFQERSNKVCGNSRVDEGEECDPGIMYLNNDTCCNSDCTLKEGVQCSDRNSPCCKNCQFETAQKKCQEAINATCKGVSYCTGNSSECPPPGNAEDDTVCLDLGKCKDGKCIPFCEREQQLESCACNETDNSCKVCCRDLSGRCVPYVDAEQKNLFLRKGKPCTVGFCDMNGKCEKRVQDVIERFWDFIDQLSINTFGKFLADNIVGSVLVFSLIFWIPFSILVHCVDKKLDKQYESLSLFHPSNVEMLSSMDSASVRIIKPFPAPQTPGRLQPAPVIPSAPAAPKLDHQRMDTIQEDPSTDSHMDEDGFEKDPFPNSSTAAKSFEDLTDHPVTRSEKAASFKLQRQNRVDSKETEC

Like-named read-outs stand apart in the source and are kept apart here.

This test addresses TACE enzyme (Homo sapiens (Human), UniProt P78536). The experiment in a line: Enzymatic assay for TACE inhibition (fluorescent substrate). In kind it is biochemical.

For orientation: IC50 means the concentration that gives 50% inhibition. Regarding `Cc1cc(COc2ccc(S(=O)(=O)NC[C@@H](C(=O)NO)N3CCN(C(=O)OCc4ccccc4)CC3)cc2)c2ccccc2n1` [Example 10, Benzyl 4-{(S)-1-hydroxycarbamoyl-2-[4-(2-methylquinolin-4-ylmethoxy)benzenesulfonylamino]ethyl}piperazine-1-carboxylate], the IC50 (enzymatic assay, substrate 40 μM, read-out: IC50-TACE) was 47 nM.

Take `Cc1cc(COc2ccc(S(=O)(=O)NC[C@@H](C(=O)NO)N3CCN(Cc4ccc(C(F)(F)F)cc4)CC3)cc2)c2ccccc2n1` [Example 20, (S)-N-Hydroxy-3-[4-(2-methylquinolin-4-ylmethoxy)benzenesulfonylamino]-2-[4-(4-trifluoromethylbenzyl)piperazin-1-yl]propionamide]: the IC50 (TACE column of selectivity table, read-out: IC50 (nM) TACE) is 140 nM.
